Values quoted from earlier work, collected in publication PMC6295868, “Hybrid Inhibitors of Malarial Dihydrofolate Reductase with Dual Binding Modes That Can Forestall Resistance” (ACS Medicinal Chemistry Letters, 2018).

Test system: P. falciparum TM4/8.2 (NCSI)
Details: ± SD; cited from earlier work

CCc1nc(N)nc(N)c1-c1ccc(Cl)cc1 [Pyr, pyrimethamine]
IC50: 80 ± 10 nM
